Laboratory results published in BindingDB's records for patent US12110278 (Yale University, 2024).

The chains behind the UniProt entries cited, without tags or fusion partners. Residues count along the entry.
UniProt O60674, 536-812 W659A/W777A/F794H: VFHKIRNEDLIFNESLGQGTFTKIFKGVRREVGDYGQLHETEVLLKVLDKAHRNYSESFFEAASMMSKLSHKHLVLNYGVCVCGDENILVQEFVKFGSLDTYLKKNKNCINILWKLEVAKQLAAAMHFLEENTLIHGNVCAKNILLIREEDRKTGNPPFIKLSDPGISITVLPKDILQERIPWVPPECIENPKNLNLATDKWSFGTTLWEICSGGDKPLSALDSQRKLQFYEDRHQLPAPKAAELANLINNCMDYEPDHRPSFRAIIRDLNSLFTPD

Molecular target: T1, Tyrosine-protein kinase JAK2 [536-812,W659A,W777A,F794H] (Homo sapiens, UniProt O60674, W659A/W777A/F794H)
T1 construct: 536-812
Assay: Fluorescence Polarization (FP) Assay

Kd: 1900 nM
SMILES: COC(=O)COc1ccc(NC(=O)n2nc(Nc3ccc(S(N)(=O)=O)cc3)nc2N)cc1 [US12110278, Compound 8]
